Nrf2 activator – activates Nrf2 signaling; 410,000 tested, 0.31% active; AID 624171; AREc32 ARE-luciferase reporter (MCF7-derived line), luminescence, 24 h; Potency, µM (top dose mostly 46.1 µM), usual class: activators; also: nearly all actives have a fitted effect of over 65% in size
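Luciferase luminescence (Steady-Glo, 30 min at room temperature) served as the read-out of ARE activation in AREc32 cells treated with compounds for 24 hr at 37 deg C.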
miR-21 reporter – miR-21 reporter, rising signal | Potency, µM (highest dose often 38.3 µM) | 340,000 tested, under 10 active | HeLa miR-21 FLuc reporter, luciferase, 48 h; active = well fitted rising curve with a large enough effect; inconclusive = small, poorly fitted or top-dose-only effect; inactive = no such curve, though single readings can be large or run the other way;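 note: miR-21 action dims this reporter so a rising signal means less miR-21 action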
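HeLa cells stably expressing CMV-driven firefly luciferase with a downstream miR-21 binding sequence, endogenously expressing miR-21, were treated with titrations (up to about 40uM final) for 48 hours at 37 degree Celsius. Luciferase luminescence was read after lysis.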
ClpP mod – qHTS Assay for Activators of ClpP; 340,000 tested, 1.9% active; purified B. subtilis ClpP, FRET peptide cleavage, 20 min; Potency, µM (top dose mostly 57.5 µM); active = well fitted falling curve with a large enough effect; inconclusive = small, poorly fitted or top-dose-only effect; inactive = no such curve, though single readings can be large or run the other way; also: the source files actives as falling curves though it sought activators and does not explain the sign; nearly all actives have a fitted effect of over 65% in size
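Buffer: 100 mM Tris/HCl pH8, 100 mM KCl, 0.05% low protease BSA, 2.5% glycerol, 0.01% Tween-20. ClpP 10 microg/mL final; 20 min RT; delta FRET normalized to ADEP and DMSO controls.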
A549 viability – kills or reduces viability of A549 cells in Nrf2 counter-screen; A549 ARE-Fluc cells, CellTiter-Fluor viability, 18-24 h; Potency, µM (titrated, usually from 46 µM), actives largely listed as inhibitors; 390,000 tested, 0.16% active; AID 504648
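Cytotoxicity counterscreen: CellTiter-Fluor fluorescence was measured in A549 ARE_Fluc cells after 18-24 h of compound exposure in a concentration series. The subsequent BugLite luminescent read reports ARE-luciferase activity.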
p53 reactivation – restores transcriptional activity of mutant p53. 320,000 tested, 0.063% active. H1299 p53-A138V BP100-luciferase reporter, luminescence, 24 h. Potency, µM (highest dose often 92.2 µM), usual class: activators. AID 504706; also: nearly all actives have a fitted effect of over 45% in size
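H1299 (p53-null), stable ts p53-A138V + BP100-Luc; 1000 cells/well, Opti-MEM/10% FBS; cpd 4 pt, 1:5; 24 h, 37 deg C, 5% CO2; detection reagent 10 min RT; luminescence.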
Nrf2 inh – blocks Nrf2 signaling. A549 ARE-Fluc reporter, luciferase luminescence, 18-24 h. Potency, µM (doses to about 46 µM), most hits filed as inhibitors. 360,000 tested, 2.1% active. AID 504444; also: nearly all actives have a fitted effect of over 60% in size
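Nrf2 activity is the BugLite luminescence, read 15 min after reagent at room temperature, following CellTiter-Fluor cytotoxicity readout (30 min, 37C). Compound titrations were applied for 18-24 h to 5000 A549 ARE_Fluc cells/well in 5% FBS OPTI-MEM.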
Hits are given with their value; – = inactive; ? = inconclusive; · = no result. In the library only some 3.7% were active in any assay of this set; here they are far more common. Unless noted, calls follow the shape of the dose curve; as a rule, active = well fitted curve in the direction sought with a large enough effect; inconclusive = small, poorly fitted or top-dose-only effect, or another doubt; inactive = no such curve, though single readings can be large; an effect the other way counts as inactive or inconclusive.

SMILES	Nrf2 activator	miR-21 reporter	ClpP mod	A549 viability	p53 reactivation	Nrf2 inh
COc1ccc(-c2nc3cccc(OC)c3c(=O)n2Cc2ccccc2)cc1COc1ccc(NC(C)=O)cc1	·	·	·	–	·	–
CCCCN1C=C(C(=O)OC)C(c2ccccc2C(F)(F)F)C(C(=O)OC)=C1	–	–	31.6µM	–	–	–
COCCN1C=C(C(=O)OC)C(c2ccccc2C(F)(F)F)C(C(=O)OC)=C1	–	–	–	–	–	–
O=S(=O)(c1ccc(NC2CCCc3ccccc32)nc1)N1CCOCC1 (stereo not given)	–	–	31.6µM	–	–	–
O=C(NC1CCCc2ccccc21)c1ccc(S(=O)(=O)N2CCOCC2)cc1 (stereo not given)	–	–	–	–	–	–
CCN(CC)S(=O)(=O)c1ccc(NC2CCN(Cc3ccccc3)CC2)nc1	–	–	·	–	–	–
CCN(CC)S(=O)(=O)c1ccc(NC2CCCc3ccccc32)nc1 (stereo not given)	–	–	?	–	–	14.6µM
CCc1cc2c(NCCC(=O)O)nc(C)nc2s1	–	–	28.2µM	–	–	?
CCC(C(=O)NC1CCCCC1)n1nc(C)c2sc3ccccc3c2c1=O (stereo not given)	–	–	–	–	·	–
O=C1OCCC1Sc1nnc(-c2ccc(F)cc2)n1Cc1ccccc1 (stereo not given)	–	–	25.1µM	–	–	–
O=C1OCCC1Sc1nc2ccccc2c(=O)n1Cc1ccc(F)cc1 (stereo not given)	–	–	–	–	–	–
CC(=O)c1c(C)nn(CC(O)COc2ccc3c(c2)CCC3)c1C (stereo not given)	–	–	–	–	–	9.2µM
Cc1nn(CC(O)COc2ccc3c(c2)CCC3)c(C)c1Br (stereo not given)	–	–	–	–	–	–
Oc1ccc(CNc2cccnc2)c2cccnc12	·	·	·	–	·	–
O=C(OCC(=O)N1CCOCC1)c1ccc2ccccc2c1O	–	·	28.2µM	–	?	–
COc1cc2ccccc2cc1C(=O)OCC(=O)N1CCOCC1	–	–	?	–	–	–
COc1cccc(Cc2nc3ccccc3nc2SCC(=O)N2CCc3ccccc32)c1	–	–	–	–	·	·
O=C(OC[C@@H]1CCCN2CCCC[C@H]12)c1cc2ccccc2oc1=O	–	–	25.1µM	–	–	–
O=C(OC1CCCCC1)c1cc2ccccc2oc1=O	–	–	·	–	?	–
COC(=O)Nc1nnc(/C=C/c2ccc(OC)cc2)s1	–	–	22.4µM	–	–	–
O=C1c2cccc3c([N+](=O)[O-])ccc(c23)C(=O)N1c1ccccn1	–	?	–	–	–	?
O=C1c2cccc3c([N+](=O)[O-])ccc(c23)C(=O)N1O	12.6µM	–	–	–	?	?
O=C(COc1ccccc1[N+](=O)[O-])Nc1ccc(N2CCN(C(=O)c3cccs3)CC2)cc1	–	–	·	–	–	5.8µM
N#Cc1ccccc1NC(=O)COC(=O)c1cccs1	–	·	–	–	–	?
O=C(COC(=O)c1cccs1)Nc1ccccc1[N+](=O)[O-]	11.2µM	–	–	–	–	–
SMILES	Nrf2 activator	miR-21 reporter	ClpP mod	A549 viability	p53 reactivation	Nrf2 inh
O=C(COc1ccc(Cl)cc1)Nc1ccc(N2CCN(C(=O)c3ccco3)CC2)cc1	–	–	–	–	–	23.1µM
CCC(=O)Nc1ccc(N2CCN(C(=O)c3cccs3)CC2)cc1	–	–	–	–	–	–
Cc1ccc(C(=O)Nc2ccc(N3CCN(C(=O)c4cccs4)CC3)cc2)c(Cl)c1	–	?	·	–	–	23.1µM
Cc1ccc(N2C(=O)NC(NS(=O)(=O)c3ccc(Cl)cc3)(C(F)(F)F)C2=O)cc1C (stereo not given)	–	–	–	–	·	–
CCCCNC(=O)C1CCN(c2nc3ccccc3nc2C(F)(F)F)CC1	–	–	–	–	·	–
CCCOc1ccc(C(=O)Nc2ccc(NC(=O)c3ccccc3)c(Br)c2)cc1	–	–	–	–	·	–

Screening data from PubChem.
